The test system of this assay is BT-474 human breast carcinoma cells. The assay can be described thus: BT-474 cell viability by RTCA. The assay is classed as cell-based. Conditions: amounts corresponding to 0.5 mg/ml and 1.25 mg/ml Herceptin, 3 days. As for the experimental part: The ability of F4P6-TR-CTP-MNC-Herceptin to kill cancer cells was compared to that of MNC-Herceptin in HER-2/neu. Briefly, BT-474 human breast carcinoma cells, which overexpress HER2/neu, were seeded at 1×10^4 cells per well in a 96-well E-plate and cultured for one day. Wells were treated with vehicle, Herceptin alone, MNC-Herceptin, or F4P6-TR-CTP-MNC-Herceptin in amounts corresponding to 0.5 mg/ml and 1.25 mg/ml Herceptin. Cell viability was assessed after 3 days using RTCA as described in Example 6, supra.

Consider trastuzumab [Herceptin], for which the “cell survival (percent of vehicle control)” value is given as “did not inhibit survival”.

Values taken from patent publication US11643437B2, “Tandem repeat cancer-targeting peptides for molecular conjugation or engineering and uses thereof in cancer theranostics” (Chang Gung Memorial Hospital, priority 2020, dated 2023).
